In one test the target is Integrin αvβ6 Receptor (Homo sapiens, UniProt P06756+P18564). Nature of the test: HTRF binding activity to integrin αvβ6 receptor (competition with LAP (TGF-beta 1)). For orientation: In TR-FRET formats the signal depends on donor and acceptor labels being close together.
Another test has as its target Integrin αvβ1 Receptor (Homo sapiens, UniProt P05556+P06756). Nature of the test: Fluorescence polarization (FP) binding activity to integrin αvβ1 receptor (competition with Cyclo[-RGDy-K(5-FAM)]). Conditions: read-out: IC50 (nM) αvβ1, Table 4, different integrin receptors. On the technique in general: Fluorescence polarisation rises when a labelled molecule tumbles more slowly, as on binding a larger partner.

By UniProt entry, the sequences of proteins in these tests, tags left out. Residues count along the entry.
UniProt P06756, 31-992 limits assumed: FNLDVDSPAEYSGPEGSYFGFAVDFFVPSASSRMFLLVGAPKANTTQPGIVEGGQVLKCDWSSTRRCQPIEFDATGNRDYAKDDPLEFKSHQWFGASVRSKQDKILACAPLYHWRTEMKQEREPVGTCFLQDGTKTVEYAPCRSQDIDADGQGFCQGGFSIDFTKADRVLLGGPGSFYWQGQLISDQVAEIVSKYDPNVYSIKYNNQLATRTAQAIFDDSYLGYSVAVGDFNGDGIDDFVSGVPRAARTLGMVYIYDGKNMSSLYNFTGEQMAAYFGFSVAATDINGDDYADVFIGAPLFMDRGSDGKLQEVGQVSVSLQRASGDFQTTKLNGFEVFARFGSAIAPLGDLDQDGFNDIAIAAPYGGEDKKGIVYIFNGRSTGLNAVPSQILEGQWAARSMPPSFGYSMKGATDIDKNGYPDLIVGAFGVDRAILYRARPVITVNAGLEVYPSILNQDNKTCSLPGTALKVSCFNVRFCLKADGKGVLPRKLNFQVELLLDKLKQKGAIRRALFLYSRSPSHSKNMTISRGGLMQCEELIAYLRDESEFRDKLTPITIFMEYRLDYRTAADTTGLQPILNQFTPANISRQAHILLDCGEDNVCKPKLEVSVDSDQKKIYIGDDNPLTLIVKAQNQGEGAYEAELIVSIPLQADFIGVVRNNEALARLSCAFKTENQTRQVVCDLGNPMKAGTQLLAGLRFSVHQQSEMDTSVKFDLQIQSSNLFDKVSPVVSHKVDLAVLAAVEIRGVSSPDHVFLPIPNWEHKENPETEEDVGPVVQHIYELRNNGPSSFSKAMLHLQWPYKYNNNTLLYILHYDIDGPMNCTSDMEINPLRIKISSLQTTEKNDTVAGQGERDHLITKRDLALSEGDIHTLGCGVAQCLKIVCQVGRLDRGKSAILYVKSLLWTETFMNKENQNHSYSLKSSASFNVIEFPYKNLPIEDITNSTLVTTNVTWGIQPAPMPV
UniProt P18564, 22-707 limits assumed: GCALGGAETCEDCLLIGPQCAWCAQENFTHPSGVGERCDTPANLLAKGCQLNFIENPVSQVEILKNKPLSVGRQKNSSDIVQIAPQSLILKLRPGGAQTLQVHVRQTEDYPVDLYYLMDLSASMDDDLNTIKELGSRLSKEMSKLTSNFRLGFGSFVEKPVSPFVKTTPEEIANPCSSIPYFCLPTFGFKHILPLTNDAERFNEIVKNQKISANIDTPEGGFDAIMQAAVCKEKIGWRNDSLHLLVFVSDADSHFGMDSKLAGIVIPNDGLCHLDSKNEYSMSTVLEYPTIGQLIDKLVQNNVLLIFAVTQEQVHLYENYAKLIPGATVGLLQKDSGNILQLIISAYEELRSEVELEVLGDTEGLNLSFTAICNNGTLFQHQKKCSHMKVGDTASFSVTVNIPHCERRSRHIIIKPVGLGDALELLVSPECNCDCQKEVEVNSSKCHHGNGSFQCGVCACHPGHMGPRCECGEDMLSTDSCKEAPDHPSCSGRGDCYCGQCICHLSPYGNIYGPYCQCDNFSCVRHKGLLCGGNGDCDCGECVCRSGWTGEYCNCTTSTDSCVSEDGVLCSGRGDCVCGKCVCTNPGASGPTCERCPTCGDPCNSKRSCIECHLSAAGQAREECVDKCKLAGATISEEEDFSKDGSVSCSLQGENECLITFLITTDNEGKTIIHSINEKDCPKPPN
UniProt P05556, 21-728 limits assumed: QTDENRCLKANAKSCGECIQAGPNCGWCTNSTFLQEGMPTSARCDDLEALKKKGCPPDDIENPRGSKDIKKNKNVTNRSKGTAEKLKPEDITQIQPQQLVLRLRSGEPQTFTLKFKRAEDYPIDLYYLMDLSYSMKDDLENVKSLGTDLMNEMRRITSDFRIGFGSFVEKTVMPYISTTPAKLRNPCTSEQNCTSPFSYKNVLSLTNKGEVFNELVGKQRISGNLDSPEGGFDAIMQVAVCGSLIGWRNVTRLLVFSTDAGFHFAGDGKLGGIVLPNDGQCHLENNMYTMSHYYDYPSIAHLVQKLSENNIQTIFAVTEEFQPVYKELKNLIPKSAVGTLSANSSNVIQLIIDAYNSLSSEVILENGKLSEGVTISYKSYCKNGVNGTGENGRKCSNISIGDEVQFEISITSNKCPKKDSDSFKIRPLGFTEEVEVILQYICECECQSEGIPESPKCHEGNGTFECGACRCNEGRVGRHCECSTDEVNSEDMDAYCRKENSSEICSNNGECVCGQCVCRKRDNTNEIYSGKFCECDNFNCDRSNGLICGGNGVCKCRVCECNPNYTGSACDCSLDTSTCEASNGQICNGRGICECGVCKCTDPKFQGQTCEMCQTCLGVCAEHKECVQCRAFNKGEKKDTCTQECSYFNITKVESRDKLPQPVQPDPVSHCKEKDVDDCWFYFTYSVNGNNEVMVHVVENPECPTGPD
UniProt P18084, 24-719 limits assumed: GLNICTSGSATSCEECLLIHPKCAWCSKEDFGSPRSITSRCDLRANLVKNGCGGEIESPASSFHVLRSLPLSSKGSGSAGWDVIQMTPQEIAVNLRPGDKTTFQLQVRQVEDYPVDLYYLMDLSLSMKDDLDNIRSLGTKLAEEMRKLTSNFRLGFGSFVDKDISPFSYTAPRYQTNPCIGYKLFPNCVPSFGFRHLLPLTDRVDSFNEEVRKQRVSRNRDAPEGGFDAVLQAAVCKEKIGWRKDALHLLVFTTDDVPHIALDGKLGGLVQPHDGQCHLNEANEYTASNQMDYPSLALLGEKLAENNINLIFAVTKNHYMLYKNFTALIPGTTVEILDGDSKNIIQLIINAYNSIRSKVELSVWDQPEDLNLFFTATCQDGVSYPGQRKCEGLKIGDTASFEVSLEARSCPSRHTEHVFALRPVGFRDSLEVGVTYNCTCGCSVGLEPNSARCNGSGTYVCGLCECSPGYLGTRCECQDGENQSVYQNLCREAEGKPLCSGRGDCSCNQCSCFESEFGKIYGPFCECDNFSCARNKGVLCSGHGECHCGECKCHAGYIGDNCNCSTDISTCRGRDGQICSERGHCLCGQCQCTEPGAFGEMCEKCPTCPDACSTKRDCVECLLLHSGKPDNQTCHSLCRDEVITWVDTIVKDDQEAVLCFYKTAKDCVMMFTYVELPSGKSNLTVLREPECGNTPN

The next test has as its target Integrin αvβ5 Receptor (Homo sapiens, UniProt P06756+P18084). Description: HTRF binding activity to integrin αvβ5 receptor (competition with Vitronectin). As to conditions: read-out: IC50 (nM) αvβ5, Table 4, different integrin receptors.

For 1 compound, IC50 results are on record in patent EP4786451A1, “COMPOUND TARGETING INTEGRIN AND USE THEREOF IN RNAI AGENT” (YUN HO BIO CO., LTD, priority 2023, dated 2025).

Where two headings read alike, the source gives them in different places.

As to `Cc1cc(C)n(-c2cccc(C(CC(=O)O)CN3CC[C@@H](CCc4nc5c(cc4CNC(=O)CCOCCOCCOCCOCCN=[N+]=[N-])CCCN5)C3)c2)n1` (single isomer, unassigned), the IC50 was 4.5 nM on Integrin αvβ6 Receptor (Integrin αvβ6, HTRF, Table 3, several runs, each with Cilengitide and 1 as references); 3.6 nM at Integrin αvβ6 Receptor (read-out: IC50 (nM) αvβ6, Table 4, different integrin receptors); 5.3 nM at Integrin αvβ1 Receptor; 0.8 nM on Integrin αvβ5 Receptor.

What is called IC50 is the point on the concentration scale where inhibition reaches its midpoint.
